These results are taken from US20060223837A1 (priority 2005, published 2006).

The chains behind the UniProt entries cited, without tags or fusion partners.
UniProt Q8NER1, whole entry: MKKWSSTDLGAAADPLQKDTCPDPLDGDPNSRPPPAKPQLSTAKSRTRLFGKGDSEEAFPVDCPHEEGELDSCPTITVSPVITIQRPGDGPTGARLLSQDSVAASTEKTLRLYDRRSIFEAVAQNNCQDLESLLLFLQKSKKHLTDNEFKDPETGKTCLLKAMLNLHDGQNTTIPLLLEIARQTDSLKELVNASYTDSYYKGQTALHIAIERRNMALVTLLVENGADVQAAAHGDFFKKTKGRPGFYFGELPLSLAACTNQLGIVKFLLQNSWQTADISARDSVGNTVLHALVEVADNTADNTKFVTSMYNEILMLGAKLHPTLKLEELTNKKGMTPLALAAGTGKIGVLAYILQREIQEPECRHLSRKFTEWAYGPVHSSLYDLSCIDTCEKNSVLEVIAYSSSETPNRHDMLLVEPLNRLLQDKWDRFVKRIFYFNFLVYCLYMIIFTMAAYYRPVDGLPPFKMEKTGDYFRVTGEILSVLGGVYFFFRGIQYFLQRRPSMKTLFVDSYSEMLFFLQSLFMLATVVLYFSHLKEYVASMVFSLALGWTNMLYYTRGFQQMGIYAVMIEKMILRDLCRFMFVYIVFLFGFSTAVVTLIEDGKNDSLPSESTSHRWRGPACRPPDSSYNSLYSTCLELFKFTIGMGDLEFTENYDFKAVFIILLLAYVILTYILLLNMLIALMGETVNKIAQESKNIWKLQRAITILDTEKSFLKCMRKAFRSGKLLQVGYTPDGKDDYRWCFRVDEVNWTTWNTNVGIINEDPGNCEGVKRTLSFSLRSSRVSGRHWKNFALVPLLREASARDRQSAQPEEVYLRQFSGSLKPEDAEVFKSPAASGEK

In experiment [1] the target is T1, human VR1 (Homo sapiens, UniProt Q8NER1). Nature of the experiment: Human VR1 functional assay (FLIPR intracellular Ca2+). The following applies: for h % I (1 μM): inhibition of capsaicin response; for pIC50: read-out: h IC50, antagonism of capsaicin-induced Ca2+ increase. The class given is cell-based. As to the method:
The functional activity of the test compounds was determined by measuring changes in intracellular calcium concentration using a Ca^2+-sensitive fluorescent dye and FLIPR™ technology. Increases in Ca^2+ concentration were readily detected upon challenge with capsaicin. HEK293 Cells expressing human VR1 were grown on poly-D-lysine coated 384 well black-walled plates (BD 354663) and 1 day later loaded with Calcium 3 Dye for 35 min at 37 C, 5% CO2 and then for 25 min at room temperature, and subsequently tested for agonist-induced increases in intracellular Ca^2+ levels using FLIPR™ technology. Cells were challenged with test compounds (at varying concentrations, which are indicated in parentheses in the heading of the table below) and intracellular Ca^2+ was measured for 5 min prior to the addition of capsaicin to all wells to achieve a final concentration of eliciting an approximate 80% maximal response ([…]). EC50 or IC50 values were determined from dose-response studies. Curves were generated using the average of quadruplicate wells for each data point.

The target in experiment [2] is T1, human VR1. Nature of the experiment: Human VR1 [3H]RTX binding assay. As for the experimental part:
Compounds of the present invention were tested for their ability to inhibit the binding of tritiated resiniferatoxin ([^3H] RTX) to human VR1 receptors in a [^3H] […]
Approximately 120 μg protein/ml from membranes were incubated with indicated concentrations of [^3H]RTX in 0.5 ml of the HEPES buffer (pH 7.4) containing 0.25 mg/mL fatty acid-free bovine serum albumin at 37 C for 60 min. After cooling the reaction mixture to 4 C, 0.1 mg (x-acid glycoprotein was added to each sample, which was incubated at 4 C for 15 min and then centrifuged at 18500× g for 15 min. The tip of the microcentrifuge tube containing the pellet was cut off. Bound radioactivity was quantified by scintillation counting. Non-specific binding was assessed in the presence of 200 nM unlabeled resiniferatoxin.
Data were calculated according to the equation: % inhibtion=(total binding−binding)*100/(total binding−non specific binding).
Ki values were calculated based on an average of duplicate measurements using a GraphPad Prism program.

The pEC50 is the EC50 on a negative log10 scale, so that one unit is a factor of ten. Broadly, the pKi is the negative decadic logarithm of the Ki, by convention in mol/L. By pIC50 is commonly meant the negative decadic logarithm of the IC50, by convention in mol/L.

pEC50, pIC50, pKi: −log10 of the molar value.

For the compound `CC(=O)Nc1cccc(-c2ccc(NC(=O)CCc3ccc(C(C)(C)C)cc3)cn2)c1`, in experiment [1] (agonist response, 12 μM), the “% Response Relative to EC80 of Capsaicin (12 μM)” value was found to be 125%. The negative-log EC50 (pEC50) in experiment [1] (read-out: h EC50, agonist-induced Ca2+ increase) was 8.22. In addition, the “h Binding % I (1 μM)” value in experiment [2] (inhibition of [3H]RTX binding at 1 μM) is recorded as 60%. The pKi in experiment [2] (read-out: h Ki, [3H]RTX binding, HEK293 membranes) is 6.45.

On to `Cc1cc(NC(=O)CCc2ccc(S(=O)(=O)C(F)(F)F)cc2)cnc1-n1cnc(Cl)c1Cl`, for which, in experiment [1], the “h % I (1 μM)” value is recorded as 97% and the pIC50 is 6.49.

Turning to `O=C(CCc1ccc(S(=O)(=O)C(F)(F)F)cc1)Nc1ccc(-n2cnc(Cl)c2Cl)c(C(F)(F)F)c1`, in experiment [1], the “h % I (1 μM)” value was 98% and the negative-log IC50 (pIC50) is 6.51.
